# According to ChEMBL document CHEMBL1125142, “Highly selective kappa-opioid analgesics. 3. Synthesis and structure-activity relationships of novel N-[2-(1-pyrrolidinyl)-4- or -5-substituted-cyclohexyl]arylacetamide derivatives” (1990):
# Amino acid sequences for entries named in this document (tags omitted). A change or cut given only in a name is not applied to a line headed by its entry.
# UniProt P41144: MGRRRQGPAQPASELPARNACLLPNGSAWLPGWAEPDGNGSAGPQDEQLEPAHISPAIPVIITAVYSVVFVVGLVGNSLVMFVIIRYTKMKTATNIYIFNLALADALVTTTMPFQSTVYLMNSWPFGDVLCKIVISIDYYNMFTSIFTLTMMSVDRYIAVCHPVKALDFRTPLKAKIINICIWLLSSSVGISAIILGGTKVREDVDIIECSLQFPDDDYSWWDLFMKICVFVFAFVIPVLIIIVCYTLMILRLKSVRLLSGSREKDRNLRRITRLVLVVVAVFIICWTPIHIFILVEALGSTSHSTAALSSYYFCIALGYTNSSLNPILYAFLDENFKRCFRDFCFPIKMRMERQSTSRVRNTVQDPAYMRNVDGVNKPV
# What was measured:
# [1] = molecular target: Kappa-type opioid receptor (Cavia porcellus, UniProt P41144); experiment: Binding affinity against Opioid receptor kappa 1
# Rattus norvegicus = experiment: Dose required to produce 50 percent of maximum possible analgesic effect (MPE) was evaluated by rat paw pressure test (iv)
# [2] = Binding affinity against Opioid receptor mu 1
Structure (SMILES),pKi [1],MPE50 (Rattus norvegicus) [mg/kg],pKi [2]
CO[C@H]1CC(N(C)C(=O)Cc2cccc3sccc23)[C@@H](N2CCCC2)C[C@H]1OC (stereo partly drawn),7.80,,
CO[C@H]1CC(N(C)C(=O)Cc2cccc3sccc23)[C@@H](N2CCCC2)C[C@H]1OC.Cl (stereo partly drawn),,0.8,
CN1CC[C@]23c4c5ccc(O)c4O[C@H]2[C@@H](O)C=C[C@H]3[C@H]1C5.Cl,,0.6,
CN(C(=O)Cc1cccc2occc12)[C@@H]1CC[C@]2(CCCO2)C[C@H]1N1CCCC1,9.08,,5.90
CN(C(=O)Cc1cccc2occc12)[C@@H]1CC[C@]2(CCCO2)C[C@H]1N1CCCC1.Cl,,0.024,
CN(C(=O)Cc1cccc2sccc12)[C@H]1CCCC[C@@H]1N1CCCC1,8.43,,
CN(C(=O)Cc1ccc(Cl)c(Cl)c1)C1CCC2(CCCO2)CC1N1CCCC1 (stereo not drawn),,0.4,

# pKi: −log10 of the molar value.
